Bioassay records (PubChem BioAssay)
Sampled rows, rich in hits. Any-hit rate of the full collection: about 3.7%.
miR-21 reporter: miR-21 reporter, rising signal; HeLa miR-21 FLuc reporter, luciferase, 48 h; Potency, µM (doses to about 38.3 µM); 340,000 tested, under 10 active; AID 2288; active = well fitted rising curve with a large enough effect; inconclusive = small, poorly fitted or top-dose-only effect; inactive = no such curve, though single readings can be large or run the other way;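 further: miR-21 action dims this reporter so a rising signal means less miR-21 action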
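Luminescence from a firefly luciferase reporter carrying a miR-21 binding site downstream, stably expressed under a CMV promoter in HeLa cells that make miR-21 endogenously, reports miRNA modulation after 48 h compound exposure up to approximately 40uM final.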
A549 viability: kills or reduces viability of A549 cells in Nrf2 counter-screen; A549 ARE-Fluc cells, CellTiter-Fluor viability, 18-24 h; Potency, µM (doses to about 46 µM), usual class: inhibitors; actives 0.16% (n = 390,000)
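Cytotoxicity counterscreen: CellTiter-Fluor fluorescence was measured in A549 ARE_Fluc cells after 18-24 h of compound exposure in a concentration series. The subsequent BugLite luminescent read reports ARE-luciferase activity.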
Nrf2 ARE act: activators of Nrf2 (ARE) signaling | actives 0.31% (n = 410,000) | AREc32 ARE-luciferase reporter (MCF7-derived line), luminescence, 24 h | AID 624171 | Potency, µM (doses to about 46.1 µM), hits mostly activators; also: nearly all actives have a fitted effect of over 65% in size
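AREc32 cells carrying an ARE-driven firefly luciferase reporter were seeded at 1000 cells/well in OPTI-MEM with 5% FBS, then exposed to compound for 24 hr at 37 deg C. Luminescence was read with Steady-Glo after 30 min at RT.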
ClpP mod: qHTS Assay for Activators of ClpP. purified B. subtilis ClpP, FRET peptide cleavage, 20 min. Potency, µM (doses to about 57.5 µM). actives 1.9% (n = 340,000); active = well fitted falling curve with a large enough effect; inconclusive = small, poorly fitted or top-dose-only effect; inactive = no such curve, though single readings can be large or run the other way; also: the source files actives as falling curves though it sought activators and does not explain the sign; nearly all actives have a fitted effect of over 65% in size
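Buffer: 100 mM Tris/HCl pH8, 100 mM KCl, 0.05% low protease BSA, 2.5% glycerol, 0.01% Tween-20. ClpP 10 microg/mL final; 20 min RT; delta FRET normalized to ADEP and DMSO controls.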
p53 reactivation: re-activators of mutant p53; H1299 p53-A138V BP100-luciferase reporter, luminescence, 24 h; actives 0.063% (n = 320,000); AID 504706; Potency, µM (titrated, usually from 92.2 µM), most hits filed as activators; also: nearly all actives have a fitted effect of over 45% in size
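H1299 (p53-null), stable ts p53-A138V + BP100-Luc; 1000 cells/well, Opti-MEM/10% FBS; cpd 4 pt, 1:5; 24 h, 37 deg C, 5% CO2; detection reagent 10 min RT; luminescence.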
Nrf2 inh: Nrf2 pathway inhibition; Potency, µM (doses to about 46 µM), hits mostly inhibitors; A549 ARE-Fluc reporter, luciferase luminescence, 18-24 h; actives 2.1% (n = 360,000); also: nearly all actives have a fitted effect of over 60% in size
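Two sequential reads on A549 ARE_Fluc cells exposed to compound for 18-24 h: a CellTiter-Fluor fluorescence read for viability, then a luciferase luminescence read for Nrf2/ARE activity.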
Large screens that a line does not name were inactive; ! = a repeat was not active. Unless noted, calls follow the shape of the dose curve; as a rule, active = well fitted curve in the direction sought with a large enough effect; inconclusive = small, poorly fitted or top-dose-only effect, or another doubt; inactive = no such curve, though single readings can be large; an effect the other way counts as inactive or inconclusive.

NC(=NCCCCCCN=C(N)/N=C(\N)Nc1ccc(Cl)cc1)/N=C(\N)Nc1ccc(Cl)cc1	A549 viability inconclusive, Nrf2 inh 23µM! (no result: p53 reactivation)
Cc1cc(C)cc(N(CC(=O)NCCc2ccc(Cl)cc2)S(=O)(=O)c2c(C)noc2C)c1	none (no result: p53 reactivation)
Cc1ccc2c(CN3CCN(S(=O)(=O)c4ccc5c(c4)OCCO5)CC3)cc(=O)oc2c1C	Nrf2 inh 16µM
CC1(C(=O)NS(=O)(=O)c2ccc(Cl)s2)CCN1C(=O)C1(c2ccc(Cl)cc2)CCC1 (stereo not given)	none (no result: miR-21 reporter, A549 viability, p53 reactivation, Nrf2 inh)
O=C(Cn1nnc(-c2ccc(CN3CCOCC3)cc2)n1)Nc1nc(-c2ccccc2)cs1	Nrf2 inh 16µM
COC(=O)c1cc(Nc2nc3ccccc3nc2NS(=O)(=O)c2ccc(C)cc2)ccc1Cl	none (no result: p53 reactivation)
c1ccc(-n2c(-c3ccco3)nnc2-c2ccco2)cc1	ClpP mod 14µM
Cc1cc(-c2cc(-c3ccc(Cl)cc3)on2)nc(NC2CCCC2)n1	ClpP mod 25µM, p53 reactivation inconclusive
Cc1cc(-c2cc(-c3ccccc3)on2)nc(NC2CCCC2)n1	none
CCOC(=O)c1c(-c2ccccc2)nc2ccccn12	none
CCOC(=O)c1c(C(F)(F)F)nc2ncccn12	ClpP mod 25µM
COc1ccc(C(=O)Nc2ccccc2C(=O)N/N=C/c2ccccn2)cc1OC	p53 reactivation inconclusive, Nrf2 inh 9.2µM (no result: ClpP mod)
COc1ccc(C(=O)N/N=C/c2ccccn2)cc1OC	Nrf2 inh inconclusive
COCCN1C(=O)c2[nH]nc(-c3ccccc3O)c2C1c1ccc(OC)cc1 (stereo not given)	none (no result: ClpP mod)
CCCCN1C(=O)c2[nH]nc(-c3ccccc3O)c2C1c1ccc(OCc2ccccc2)cc1 (stereo not given)	miR-21 reporter inconclusive, A549 viability inconclusive, Nrf2 inh 15µM (no result: p53 reactivation)
COCCCN1C(=O)c2[nH]nc(-c3ccccc3O)c2C1c1ccc(OCc2ccccc2)cc1 (stereo not given)	miR-21 reporter inconclusive, A549 viability inconclusive, Nrf2 inh 26µM (no result: p53 reactivation)
O=C(CSc1nc(-c2ccccc2)cn1-c1ccccc1F)Nc1ccc(F)cc1	none (no result: p53 reactivation, Nrf2 inh)
Cc1ccc(C(=O)/C=C/C(=O)O)cc1	Nrf2 ARE act 22µM
Cc1ccc(/C=C/C(=O)c2ccccc2)cc1	p53 reactivation inconclusive (no result: A549 viability, Nrf2 ARE act, Nrf2 inh)
Cc1ccc(/C=C/C(=O)c2ccc(O)cc2)cc1	Nrf2 ARE act inconclusive, p53 reactivation 11µM (no result: ClpP mod)
O=C(c1c[nH]c2ccc(S(=O)(=O)N3CCC4(CC3)OCCO4)cc2c1=O)N1CCOCC1	ClpP mod 16µM
COC(CNC(=O)c1c[nH]c2ccc(S(=O)(=O)N3CCOCC3)cc2c1=O)OC	none
COC(CNC(=O)c1c[nH]c2ccc(S(=O)(=O)N3CCC4(CC3)OCCO4)cc2c1=O)OC	ClpP mod 22µM
O=C(c1ccc(S(=O)(=O)NCc2ccco2)cc1)N1CCCC1	none (no result: ClpP mod)
O=C(c1ccc(S(=O)(=O)c2ccccc2Cl)c([N+](=O)[O-])c1)N1CCN(Cc2ccccc2)CC1	A549 viability inconclusive, Nrf2 inh 18µM
O=C(c1ccc(Br)c([N+](=O)[O-])c1)N1CCN(Cc2ccccc2)CC1	none (no result: p53 reactivation)
Cc1ccc(S(=O)(=O)Nc2ccc(C(=O)N3CCCC3)cc2)cc1	none
N#Cc1ccc(CN2CCN(C(=O)c3ccc(S(=O)(=O)NCc4ccco4)cc3)CC2)cc1	A549 viability inconclusive, Nrf2 inh 8.2µM (no result: miR-21 reporter)
Cc1ccc(NS(=O)(=O)c2ccc(C(=O)N3CCN(S(=O)(=O)c4ccccc4)CC3)cc2)cc1	Nrf2 inh 21µM (no result: miR-21 reporter)
Cc1ccc(S(=O)(=O)NCc2ccc(C(=O)N3CCN(c4ccccc4)CC3)cc2)cc1	Nrf2 inh 23µM
COc1cccc(C(=O)NCCc2csc3nc(-c4ccccc4F)nn23)c1OC	none (no result: p53 reactivation, Nrf2 inh)
COc1ccc(N2CCN(C(=O)c3ccccc3NS(=O)(=O)c3ccc(C)cc3)CC2)cc1	ClpP mod 13µM
Cc1ccc(S(=O)(=O)NCc2ccc(N3CCN(C(=O)OC(C)(C)C)CC3)cc2)cc1	Nrf2 inh 26µM
CS(=O)(=O)c1ccc(C(=O)N2CCN(Cc3ccccc3)CC2)cc1	none (no result: ClpP mod)
O=C(c1ccc(CNS(=O)(=O)c2ccccc2)cc1)N1CCN(Cc2ccccc2)CC1	Nrf2 inh 13µM
CC(C)CNS(=O)(=O)c1ccc(CCC(=O)N2CCN(c3ccccc3)CC2)cc1	A549 viability inconclusive, Nrf2 inh 10µM (no result: ClpP mod)
O=C(CCSCc1ccccc1Cl)NCCc1ccccc1	none (no result: p53 reactivation, Nrf2 inh)
CCn1cc(/C=C(\NC(=O)c2cc(OC)c(OC)c(OC)c2)C(=O)N2CCOCC2)c2ccccc21	none (no result: miR-21 reporter, A549 viability, p53 reactivation, Nrf2 inh)
Cc1ccc(S(=O)(=O)N2CCN(C(=O)c3ccc(COc4ccccc4)o3)CC2)cc1	Nrf2 inh 23µM (no result: miR-21 reporter)
Cc1ccc(S(=O)(=O)NCc2ccc(C(=O)N3CCc4ccccc4C3)cc2)cc1	ClpP mod 28µM, Nrf2 inh inconclusive
O=C(c1ccc(COc2ccccc2)o1)N1CCN(S(=O)(=O)c2ccccc2Cl)CC1	none (no result: miR-21 reporter)
COc1ccc(CN2[C@@H](CC(=O)O)c3ccc(/C=C/C(=O)O)cc3S2(=O)=O)cc1	none (no result: miR-21 reporter, A549 viability, Nrf2 ARE act, p53 reactivation, Nrf2 inh)
C[C@@H]1C(=O)N(S(=O)(=O)c2ccc([N+](=O)[O-])cc2)[C@H]1c1ccccc1	none (no result: miR-21 reporter, Nrf2 ARE act, ClpP mod, p53 reactivation)
Cc1cccc(C(=O)n2nc(C)c(S(=O)(=O)N3CCOCC3)c2C)c1	none (no result: p53 reactivation, Nrf2 inh)
CCC(CC)c1nn2c(=O)cc(COc3ccc(NC(=O)c4ccc(Cl)cc4)cc3)nc2s1	none (no result: p53 reactivation)
COc1ccc(/C=N/OCC(=O)NC(c2ccccc2)c2ccccc2)cc1OC	Nrf2 inh 5.8µM
CCOc1nc(NC(=O)NS(=O)(=O)Oc2cccc(F)c2)nc(-c2ccccc2)n1	none (no result: p53 reactivation)
O=C(CN1CCc2ccccc2C1)Nc1ccccc1C(F)(F)F	ClpP mod 32µM (no result: p53 reactivation)
O=C1C=C(N2CCOCC2)c2ccccc2C1=O	miR-21 reporter inconclusive, A549 viability inconclusive, Nrf2 inh 21µM (no result: ClpP mod, p53 reactivation)
NCCCNC(=O)c1cc2ccccc2[nH]1	ClpP mod 25µM
COc1ccc(CNC(=O)C(C)n2ccc3cc(S(=O)(=O)N4CCCC4)ccc32)cc1OC (stereo not given)	none (no result: p53 reactivation)
COc1cccc(CN2CCC2(C)C(=O)Nc2cccc3cccnc23)c1F (stereo not given)	ClpP mod 28µM (no result: miR-21 reporter, A549 viability, p53 reactivation, Nrf2 inh)
O=C(CNC(=O)c1ccccc1Cl)OC(C(=O)Nc1cc(C(F)(F)F)ccc1Cl)c1ccccc1 (stereo not given)	none (no result: miR-21 reporter, Nrf2 ARE act, ClpP mod, p53 reactivation)
COC(=O)C1=C(C)NC(=O)/C1=C\c1cc(C)n(-c2ccccc2)c1C	none (no result: ClpP mod)
